# Literature values as cited in patent US20140038836A1, “Novel Pharmacogene Single Nucleotide Polymorphisms and Methods of Detecting Same” (priority 2012, published 2014).
# Amino acid sequences for entries named in this document (tags omitted).
# UniProt P08913, whole entry: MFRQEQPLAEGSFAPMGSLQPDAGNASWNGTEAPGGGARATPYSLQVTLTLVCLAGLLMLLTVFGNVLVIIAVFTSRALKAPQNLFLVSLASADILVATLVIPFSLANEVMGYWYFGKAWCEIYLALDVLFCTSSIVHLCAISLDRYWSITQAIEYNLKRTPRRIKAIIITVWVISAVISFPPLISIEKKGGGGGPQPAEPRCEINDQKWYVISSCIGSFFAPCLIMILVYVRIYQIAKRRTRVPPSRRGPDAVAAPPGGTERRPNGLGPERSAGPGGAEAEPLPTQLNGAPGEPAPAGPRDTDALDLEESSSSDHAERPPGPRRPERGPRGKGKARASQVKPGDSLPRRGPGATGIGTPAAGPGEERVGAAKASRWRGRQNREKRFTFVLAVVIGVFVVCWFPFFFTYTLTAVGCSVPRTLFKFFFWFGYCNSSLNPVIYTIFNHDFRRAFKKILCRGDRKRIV
# Molecular target: ADRA2A (alpha2A subtype alpha-2-adrenergic receptor) (Homo sapiens, UniProt P08913)
# Conditions: antagonists of the alpha2A receptor
smiles,measurement,value
COc1cc2nc(N3CCN(C(=O)c4ccco4)CC3)nc(N)c2cc1OC [prazosin],rank order for antagonists,yohimbine>phentolamine=mianserine>chlorpromazine=spiperone=prazosin>propanolol>alprenolol=pindolol
